# How the values were obtained:
# [1] = molecular target: 649-mDia1 bound barbed end (BF) of a biotin-anchored actin filament (mouse | rabbit) (UniProt O08808); assay: multicolor single-molecule TIRF colocalisation; as a6, with 20 nM unlabeled mTwf1
# [2] = molecular target: 649-mDia1 bound barbed end (BF) of a biotin-anchored actin filament (mouse | rabbit) (UniProt O08808); assay: multicolor single-molecule TIRF colocalisation; biotin-anchored Alexa-488 filaments grown with 50 pM 649-mDia1, then profilin-actin and 10 nM 549-CP, no mTwf1; images every 4 s; TIRF buffer 10 mM imidazole pH 7.4, 50 mM KCl, 1 mM MgCl2, 1 mM EGTA, 0.2 mM ATP, 0.5% methylcellulose
# [3] = molecular target: Formin-bound barbed end (BF): actin filament on coverslip-anchored Biotin-SNAP-mDia1 (mouse | rabbit) (UniProt O08808); assay: microfluidics-assisted TIRF microscopy (mf-TIRF), dissociation of pre-formed BFC complexes; BFC formed as in a4, then flow of PA with mTwf1 (up to 1 µM); observed rate constants
# [4] = molecular target: Biotin-SNAP-mDia1 (FH1-FH2-C), coverslip-anchored formin (mouse) (UniProt O08808); assay: microfluidics-assisted TIRF microscopy (mf-TIRF), survival of filaments on anchored formin; as a1, PA supplemented with CP (5 nM to 1 µM)
# [5] = molecular target: Biotin-SNAP-mDia1 (FH1-FH2-C), coverslip-anchored formin (mouse) (UniProt O08808); assay: microfluidics-assisted TIRF microscopy (mf-TIRF), survival of filaments on anchored formin; as a1, PA supplemented with 50 nM CP and 1 µM mTwf1 together
# [6] = molecular target: Biotin-SNAP-mDia1 (FH1-FH2-C), coverslip-anchored formin (mouse) (UniProt O08808); assay: microfluidics-assisted TIRF microscopy (mf-TIRF), survival of filaments on anchored formin; Biotin-SNAP-mDia1 anchored on a streptavidin coverslip; filaments in a flow of 0.2 µM unlabeled G-actin and 0.7 µM profilin (PA) only (control); room temperature; 10 mM imidazole pH 7.4, 50 mM KCl, 1 mM MgCl2, 1 mM EGTA, 0.2 mM ATP, 10 mM DTT
substance,measurement,setting,value
549-CP (SNAP-CP labeled with SNAP-surface-549) (from UniProt P47753 1-286; P47757 1-277) (complex),lifetime of the 649-mDia1:549-CP barbed end complex with 20 nM twinfilin,[1],35.4 s
same,lifetime of the 649-mDia1:549-CP barbed end complex,[2],149 s
"Capping protein (CP), mouse, subunits α1 and β2, unlabeled (from UniProt P47753 1-286; P47757-2 1-272) (complex)",fold increase of CP's dissociation rate from the BFC complex with 1 µM twinfilin,[3],11 fold
same,fold increase of the BFC dissociation rate (k-BFC) with 1 µM twinfilin against the control,[3],18 fold
Rabbit skeletal muscle actin filament (barbed end) (from UniProt P68135 1-377) (natural protein; other documents disagree on this pair),fold acceleration of formin dissociation with ~50 nM CP against the control,[4],10 fold
same,fold increase of formin's dissociation rate with 1 µM CP against the control,[4],30 fold
same,fold reduction of formin's processivity with 50 nM CP and 1 µM twinfilin against the control,[5],3 fold
same,dwell time (1/dissociation rate),[6],35 min
same,fraction of filaments dissociated from formins in 500 s,[6],20%
